Test results reported in PubChem BioAssay AID624038 (The Scripps Research Institute Molecular Screening Center, 2012).
The entries are a selection whose mix differs from that of the whole data set. Activity calls are given as the source filed them.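 How the source made its calls: active means activation above the run cutoff, the mean activation of all test compounds plus 3 SD (cut at about 18% in these data); inactive means the rest.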

Protein sequences, listed by entry. Tags and fused reporters are not part of them.
UniProt P08912, whole entry: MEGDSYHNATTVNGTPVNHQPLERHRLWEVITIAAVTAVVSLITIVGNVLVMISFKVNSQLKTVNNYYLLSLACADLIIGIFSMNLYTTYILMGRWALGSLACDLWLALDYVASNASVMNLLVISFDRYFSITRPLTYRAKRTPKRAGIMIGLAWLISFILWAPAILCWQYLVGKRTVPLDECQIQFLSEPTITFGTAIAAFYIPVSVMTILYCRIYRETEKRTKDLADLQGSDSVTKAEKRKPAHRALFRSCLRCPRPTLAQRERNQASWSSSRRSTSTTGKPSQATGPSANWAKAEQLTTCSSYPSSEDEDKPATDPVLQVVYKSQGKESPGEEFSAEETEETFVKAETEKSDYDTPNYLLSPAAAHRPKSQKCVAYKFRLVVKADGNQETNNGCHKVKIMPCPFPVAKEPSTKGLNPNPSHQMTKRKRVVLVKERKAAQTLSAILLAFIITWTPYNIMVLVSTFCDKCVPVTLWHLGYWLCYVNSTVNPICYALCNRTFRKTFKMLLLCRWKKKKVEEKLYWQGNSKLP

Each compound was assayed against Muscarinic acetylcholine receptor M5 (Homo sapiens) (UniProt P08912) (assay: CHRM5 PAMs potentiating acetylcholine calcium signal – CHO-K1 cells, Fluo-8 calcium fluorescence, primary screen (AID 624038)). Conditions: CHO-K1 hM5, Fluo-8 calcium, ACh EC20 PAM; at 3 µM; active compounds read high; 0% = ACh EC20, 100% = ACh EC100.
`CCOC(=O)N1CCC(Nc2ccc(C)cc2)CC1` was tested, and the activation was inactive: 1.58%. In the case of `COc1cccc(C(c2nnnn2C(C)(C)C)N2CCC(n3c(=O)[nH]c4ccccc43)CC2)c1OC` (stereo not given), the activation is reported as inactive: -15%. With `N/C(=N\O)c1c(N)no[n+]1[O-]` the activation was inactive: -0.22%. In the case of `O=c1[nH]c2ccccc2n1C1CCN(C(c2cccs2)c2nnnn2C2CCCC2)CC1` (stereo not given), the activation is reported as inactive: -12.1%. With `O=C(OC1CN2CCC1CC2)C1c2ccccc2C=Cc2ccccc21` (stereo not given) the activation was inactive: -20.1%. `CCCCn1nnnc1C(c1cccc(OC)c1OC)N1CCC(n2c(=O)[nH]c3ccccc32)CC1` (stereo not given) was tested, and the activation was inactive: -17.1%. With `COc1cc(C(=O)NCC2(N3CCOCC3)CCCCC2)cc(OC)c1C` the activation was inactive: -0.34%. In the case of `CCCCn1nnnc1C(c1ccccc1)N1CCC(n2c(=O)[nH]c3ccccc32)CC1` (stereo not given), the activation is reported as inactive: -11.3%. `O=C(NCC1(N2CCOCC2)CCCCC1)c1cc(Br)ccc1Cl` was tested, and the activation was inactive: 5.26%. In the case of `O=c1[nH]c2ccccc2n1C1CCN(C(c2cccs2)c2nnnn2C2CCCCC2)CC1` (stereo not given), the activation is reported as inactive: -18%. With `O=c1[nH]c2ccccc2n1C1CCN(C(c2ccnc3ccccc23)c2nnnn2C2CCCC2)CC1` (stereo not given) the activation was inactive: -9.75%. With `COc1ccc(C(=O)NCC2(N3CCOCC3)CCCCC2)cc1OC` the activation was inactive: 7.06%. For `CN(C)C1(CNC(=O)c2cccc(C#N)c2)CCCCC1`, the activation was inactive: 1.42%. With `O=c1[nH]c2ccccc2n1C1CCN(C(c2ccccc2)c2nnnn2C2CCCC2)CC1` (stereo not given) the activation was inactive: -14.3%. In the case of `CCCN1CCC(Nc2cc(OC)cc(OC)c2)CC1`, the activation is reported as inactive: -2.38%. `Cc1cc(N(CCCl)CCCl)ccc1C=O` was tested, and the activation was inactive: -4.32%. With `c1ccc(CN2CCC(Nc3ccccc3)CC2)cc1` the activation was inactive: -0.32%. With `CC(C)(C)n1nnnc1C(c1cccc2ccccc12)N1CCC(n2c(=O)[nH]c3ccccc32)CC1` (stereo not given) the activation was inactive: -0.92%. For `N#Cc1ccc(C(=O)NCC2(N3CCCCC3)CCCCC2)cc1`, the activation was inactive: 12.8%. With `CC(C)(C)OC(=O)N1CCC(N(C(=O)c2ccccc2)c2ccc(Cl)cc2)CC1` the activation was inactive: -1.12%. `COc1ccc(C(c2nnnn2C2CCCCC2)N2CCC(n3c(=O)[nH]c4ccccc43)CC2)cc1` (stereo not given) was tested, and the activation was inactive: 7.73%. With `CCN1CCC(Nc2cccc(F)c2)CC1` the activation was inactive: 4.8%. `CC(C)(C)n1nnnc1C(c1ccnc2ccccc12)N1CCC(n2c(=O)[nH]c3ccccc32)CC1` (stereo not given) was tested, and the activation was inactive: -2.34%. In the case of `Cc1ccccc1NC1(C#N)CCN(Cc2ccccc2)CC1`, the activation is reported as inactive: 4.5%. For `CN(C)c1ccc(C(=O)NCC2(N3CCCCC3)CCCCC2)cc1`, the activation was inactive: 7.12%. In the case of `Cn1c(=O)[nH]cc(N(CCCl)CCCl)c1=O`, the activation is reported as inactive: 4.77%. In the case of `O=C(NCC1(N2CCCCC2)CCCCC1)c1ccco1`, the activation is reported as inactive: -1.98%. For `CCC(c1nnnn1C1CCCCC1)N1CCC(n2c(=O)[nH]c3ccccc32)CC1` (stereo not given), the activation was inactive: -3.43%. `COc1cccc(C(c2nnnn2C2CCCCC2)N2CCC(n3c(=O)[nH]c4ccccc43)CC2)c1OC` (stereo not given) was tested, and the activation was inactive: -21.9%. With `CC(=O)N(c1ccccc1)C1CCNCC1` the activation was inactive: 0.11%. `COc1cc(OC)cc(C(=O)NCC2(N3CCCCC3)CCCCC2)c1` was tested, and the activation was inactive: 0.45%. In the case of `O=c1[nH]c2ccccc2n1C1CCN(C(c2ccnc3ccccc23)c2nnnn2C2CCCCC2)CC1` (stereo not given), the activation is reported as inactive: -8.92%. `Fc1ccccc1NC1CCN(Cc2ccccc2)CC1` was tested, and the activation was inactive: -1.78%. For `Cc1ccc(C(=O)NCC2(N3CCCCC3)CCCCC2)o1`, the activation was inactive: 2.03%. `Cc1ccc(NC2(C#N)CCN(Cc3ccccc3)CC2)cc1` was tested, and the activation was inactive: 3.76%. With `COc1cccc(C(=O)N(c2cc(C)cc(C)c2)C2CCN(C(=O)OC(C)(C)C)CC2)c1` the activation was inactive: -5.9%. For `COc1cc(OC)cc(C(=O)NCC2(N3CCOCC3)CCCCC2)c1`, the activation was inactive: 4.23%. In the case of `COc1cccc(C(c2nnnn2C2CCCC2)N2CCC(n3c(=O)[nH]c4ccccc43)CC2)c1OC` (stereo not given), the activation is reported as inactive: -22.4%. In the case of `CCC(CO)(C(=O)OC1CN2CCC1CC2)c1ccccc1` (stereo not given), the activation is reported as inactive: -21.1%. In the case of `CN1CCC(Nc2ccc(Cl)cc2)CC1`, the activation is reported as inactive: -0.68%. In the case of `CN1CCC(Nc2ccc(F)c(Cl)c2)CC1`, the activation is reported as inactive: 0.11%. `CCOc1ncccc1C(=O)NCC1(N2CCOCC2)CCCCC1` was tested, and the activation was inactive: -6.3%. For `NN(c1ccccc1)C1CCN(CCc2ccccc2)CC1`, the activation was inactive: -9.52%. `O=C(O)C1(Nc2ccccc2)CCN(Cc2ccccc2)CC1` was tested, and the activation was inactive: -1.91%. For `CC(C)(C)OC(=O)N1CCC(Nc2ccccc2)CC1`, the activation was inactive: -5.01%. `O=c1[nH]c2ccccc2n1C1CCN(C(c2cc3ccccc3o2)c2nnnn2C2CCCC2)CC1` (stereo not given) was tested, and the activation was inactive: -4.05%. With `CCCOc1ccc(C(=O)NCC2(N(C)C)CCCCC2)cc1` the activation was inactive: -3.39%. For `Cc1cc(C)cc(N(C(=O)c2ccccc2)C2CCN(C(=O)OC(C)(C)C)CC2)c1`, the activation was inactive: -4.1%. In the case of `O=C(NCC1(N2CCCCC2)CCCCC1)c1ccc(Cl)nc1`, the activation is reported as inactive: -4.28%. With `O=c1[nH]c2ccccc2n1C1CCN(C(c2ccccc2OC(F)(F)F)c2nnnn2C2CCCCC2)CC1` (stereo not given) the activation was inactive: 3.4%. `O=C(NCC1(N2CCOCC2)CCCCC1)c1cc2ccccc2o1` was tested, and the activation was inactive: 2.24%. For `COc1ccc(Cl)cc1C(=O)NCC1(N2CCOCC2)CCCCC1`, the activation was inactive: 5.2%. For `O=C(NCC1(N2CCCCC2)CCCCC1)c1ccc(Cl)s1`, the activation was inactive: -0.4%. In the case of `N#CC1(Nc2ccccc2)CCN(Cc2ccccc2)CC1`, the activation is reported as inactive: -9.62%. With `O=c1[nH]c2ccccc2n1C1CCN(C(c2cc3ccccc3o2)c2nnnn2C2CCCCC2)CC1` (stereo not given) the activation was inactive: -4.32%. For `O=C(OC1CN2CCC1CC2)C1c2ccccc2Oc2ccccc21` (stereo not given), the activation was inactive: -22.8%. With `CCCCn1nnnc1C(c1ccc(OC)cc1)N1CCC(n2c(=O)[nH]c3ccccc32)CC1` (stereo not given) the activation was inactive: -7.54%. For `CCOC(=O)N1CCC(Nc2ccc(OC)cc2)CC1`, the activation was inactive: 4.01%. With `COc1ccc(C(=O)NCC2(N3CCCCC3)CCCCC2)c(OC)c1OC` the activation was inactive: 9.51%. In the case of `CC(C)(C)OC(=O)N1CCC(N(C(=O)c2ccccc2)c2ccc(F)cc2)CC1`, the activation is reported as inactive: -0.22%.
